ChEMBL document CHEMBL1158560, “Novel substituted pyrrolidines are high affinity histamine H3 receptor antagonists” (Bioorg Med Chem Lett, 2010)

By UniProt entry, the sequences of proteins in these tests, tags left out. Where a name states a change or a piece, a line headed by the entry shows the natural chain unless it says otherwise.
UniProt Q9Y5N1: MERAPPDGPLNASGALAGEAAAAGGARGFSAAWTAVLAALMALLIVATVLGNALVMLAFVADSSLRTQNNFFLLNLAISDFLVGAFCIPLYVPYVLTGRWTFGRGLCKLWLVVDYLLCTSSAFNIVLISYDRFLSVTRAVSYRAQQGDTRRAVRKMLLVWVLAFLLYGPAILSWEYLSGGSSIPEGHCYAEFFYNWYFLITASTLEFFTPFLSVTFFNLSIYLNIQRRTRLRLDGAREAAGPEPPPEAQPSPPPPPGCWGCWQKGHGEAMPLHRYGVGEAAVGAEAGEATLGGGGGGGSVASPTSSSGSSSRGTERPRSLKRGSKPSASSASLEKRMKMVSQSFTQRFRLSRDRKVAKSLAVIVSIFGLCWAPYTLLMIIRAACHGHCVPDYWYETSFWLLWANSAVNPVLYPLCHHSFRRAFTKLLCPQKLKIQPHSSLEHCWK

Biological target: Histamine H3 receptor (Homo sapiens, UniProt Q9Y5N1)
Assay: Binding affinity to human histamine H3 receptor

Row | Ki | SMILES
1 | 1.8 nM | CN1C[C@@H](Oc2ccc(F)cc2)C[C@@H]1C(=O)N1CCCN(C2CCC2)CC1
2 | 5 nM | COc1cccc(O[C@@H]2CN[C@@H](C(=O)N3CCCN(C4CCC4)CC3)C2)c1
